Source: PubChem BioAssay AID2796 (The Scripps Research Institute Molecular Screening Center, 2010)
Only a part is listed here, and it is no random draw. Activity calls are given as the source filed them. No stated cut-off is given here; in the data, active means activation above about 47%; inactive means the rest.

Protein sequences, listed by entry. Tags and fused reporters are not part of them.
UniProt P35869, whole entry: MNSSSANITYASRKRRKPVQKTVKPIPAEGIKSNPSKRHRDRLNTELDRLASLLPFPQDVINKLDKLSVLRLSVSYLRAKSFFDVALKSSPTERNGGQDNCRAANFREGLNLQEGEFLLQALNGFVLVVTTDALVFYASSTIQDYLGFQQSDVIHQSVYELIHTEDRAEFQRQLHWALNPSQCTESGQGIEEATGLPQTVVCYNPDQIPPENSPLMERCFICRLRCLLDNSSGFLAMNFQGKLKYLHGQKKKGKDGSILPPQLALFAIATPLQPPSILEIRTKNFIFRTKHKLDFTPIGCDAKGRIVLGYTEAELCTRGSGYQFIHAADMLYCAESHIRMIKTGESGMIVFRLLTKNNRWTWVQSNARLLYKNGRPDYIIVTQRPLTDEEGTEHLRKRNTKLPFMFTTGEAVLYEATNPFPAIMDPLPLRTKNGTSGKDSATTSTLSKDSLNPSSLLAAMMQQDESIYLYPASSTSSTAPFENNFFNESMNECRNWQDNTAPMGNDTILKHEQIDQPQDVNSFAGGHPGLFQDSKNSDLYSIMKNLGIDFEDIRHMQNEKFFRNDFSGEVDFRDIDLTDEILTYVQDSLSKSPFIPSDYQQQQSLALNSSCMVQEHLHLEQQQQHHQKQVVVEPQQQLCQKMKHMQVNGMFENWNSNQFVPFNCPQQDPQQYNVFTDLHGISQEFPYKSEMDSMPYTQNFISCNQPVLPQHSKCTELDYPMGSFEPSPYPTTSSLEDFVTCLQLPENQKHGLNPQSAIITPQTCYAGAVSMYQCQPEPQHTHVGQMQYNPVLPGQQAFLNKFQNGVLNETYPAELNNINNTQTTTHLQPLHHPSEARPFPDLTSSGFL

These compounds were tested against Aryl hydrocarbon receptor (Homo sapiens) (UniProt P35869) (assay: AHR activators, primary screen, cell-based, luminescence, luciferase reporter, human (AID 2796;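 further: 0% = vehicle wells and 100% = reference agonist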)). Conditions: AHR-responsive luciferase reporter cells, at 5 µM, stronger effect = higher value.

Compound | activation
CCC(=O)N(c1ccccc1)C1(COC)CCN(CCn2nnn(CC)c2=O)CC1 | inactive: -2.02%
CCC(=O)N(c1ccccc1)C1(COC)CCN(CCc2cccs2)CC1 | inactive: -0.55%
